Test [1] concerns the target T1, human SUMO-1_18–97 (SUMO) (Homo sapiens, UniProt P63165). Description: Fluorescence anisotropy competition assay (FAM-SIM tracer displacement from SUMO). Background: Fluorescence polarisation rises when a labelled molecule tumbles more slowly, as on binding a larger partner.
In test [2] the target is T1, human SUMO-1_18–97 (SUMO). Briefly: Temperature dependence of NMR-derived exchange parameters (Van't Hoff and Eyring analysis). Also on record: human SUMO-1_18–97 (SUMO); His tag with TEV site (N, cleaved yes); made in house. In kind it is binding. As to conditions: 25 °C, Van't Hoff fit, ± SD of fitted parameter (Monte-Carlo).
For test [3], the target named is T1, human SUMO-1_18–97 (SUMO). Described as above. In kind it is binding. Also on record: human SUMO-1_18–97 (SUMO); His tag with TEV site (N, cleaved yes); made in house. As to conditions: 25 °C, ± SD of fitted parameter (Monte-Carlo). From the text: Eyring plots were obtained for the temperature-dependence of the kon and koff rates (Fig. 5d and e), from which the association/dissociation activation enthalpies (ΔH^‡ass/ΔH^‡diss), activation/dissociation entropies (TΔS^‡ass/TΔS^‡diss), and thus activation/dissociation free energies (ΔG^‡ass/ΔG^‡diss), could be determined.

Sequences of proteins named here, by UniProt entry; tags and fusion partners are left off. Residues count along the entry.
UniProt P63165, 18-97: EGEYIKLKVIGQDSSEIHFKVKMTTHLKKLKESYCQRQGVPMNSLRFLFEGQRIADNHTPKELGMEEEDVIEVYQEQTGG

Test [4] concerns the target T1, human SUMO-1_18–97 (SUMO). Briefly: Relaxation-based NMR binding kinetics (15N ZZ-exchange for tighter binders, CPMG relaxation dispersion for weaker binders).

Consider `CC[C@H](C)[C@H](NC(=O)[C@H](CCC(=O)O)NC(=O)[C@H](CC(N)=O)NC(=O)[C@H](CC(=O)O)NC(C)=O)C(=O)N[C@@H](CCC(=O)O)C(=O)N[C@H](C(=O)N[C@H](C(=O)N[C@H](C(=O)N[C@H](C(=O)N[C@@H](Cc1c[nH]c2ccccc12)C(=O)N[C@@H](CCC(=O)O)C(=O)N[C@@H](CCCCN)C(=O)N[C@@H](CCCCN)C(N)=O)C(C)C)[C@@H](C)CC)[C@@H](C)CC)C(C)C` [Parent SIM, reference compound], for which the IC50 (in general, the point on the concentration scale where inhibition reaches its midpoint) in test [1] was 10.7 ± 0.7 µM. For the same compound, in test [2], the “TΔS, Binding (KD)” value came out at 35.06 ± 0.669 kcal/mol and the “ΔH, Binding (KD)” value is 27.03 ± 0.17 kcal/mol. Besides, in test [3] (Eyring fit), the “TΔS, Association (activation, kon)” value was determined as 32.17 ± 0.239 kcal/mol; the “TΔS, Dissociation (activation, koff)” value was -2.84 ± 0.072 kcal/mol; the “ΔG, Association (activation, kon)” value came to 7.22 ± 0.287 kcal/mol; the “ΔG, Dissociation (activation, koff)” value was 15.3 ± 0.096 kcal/mol. Moreover, in test [3] (Eyring fit), the “ΔH, Association (activation, kon)” value was 39.39 ± 0.239 kcal/mol and the “ΔH, Dissociation (activation, koff)” value turned out to be 12.4 ± 0.072 kcal/mol. In test [3] (Van't Hoff fit), the “ΔG, Binding (KD)” value was -8.03 ± 0.239 kcal/mol. The Kd (as a rule, the constant that tells how readily two partners part at equilibrium) in test [4] is 33.6 ± 0.9 µM. Also, in test [4] (pH 7.4), the koff (as a rule, the rate constant with which the complex falls apart) came out at 8.22 ± 0.08 s⁻¹ and the on-rate (kon) (in general, the rate constant with which the complex forms) was found to be 245000 ± 7000 M⁻¹ s⁻¹.

Source of the values: paper PMC11220606, “Understanding β-strand mediated protein–protein interactions: tuning binding behaviour of intrinsically disordered sequences by backbone modification” (Chemical Science, 2024).
